Results on 2 compounds are retold here after ChEMBL document CHEMBL5137067, “Spiro-naphthyridine Antagonists of the Melanocortin Receptor 4 for the Treatment of Cachexia Associated with Chronic Illness” (ACS Med Chem Lett, 2022).

By UniProt entry, the sequences of proteins in these tests, tags left out.
UniProt P32245, whole entry: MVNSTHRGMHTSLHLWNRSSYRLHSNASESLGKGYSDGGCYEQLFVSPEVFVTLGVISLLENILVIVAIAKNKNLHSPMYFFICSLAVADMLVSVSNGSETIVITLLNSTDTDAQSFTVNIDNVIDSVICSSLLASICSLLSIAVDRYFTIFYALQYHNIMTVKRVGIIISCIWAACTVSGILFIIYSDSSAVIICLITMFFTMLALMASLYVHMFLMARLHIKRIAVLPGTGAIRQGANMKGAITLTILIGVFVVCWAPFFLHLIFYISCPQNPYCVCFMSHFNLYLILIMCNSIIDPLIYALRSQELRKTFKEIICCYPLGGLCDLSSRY

The test deals with Melanocortin receptor 4 (Homo sapiens, UniProt P32245). Briefly: Antagonist activity at human MC4R expressed in CHO cells assessed as decrease in alpha-MSH induced cAMP level by measuring equilibrium binding constant preincubated for 30 mins followed by alpha-MSH addition measured after 30 mins by HTRF method. In kind it is functional, cell-based. The conditions noted are these: filed as antagonist, time 60.0 min.

As usually defined, the Kb is the affinity of an antagonist, worked out from how it opposes an agonist. Consider `COc1cc([C@@H](C)C(=O)N2CC[C@@]3(CCc4cc(-c5ncccn5)c(C)nc4N3)C2)c(Cl)cn1`, for which the antagonist equilibrium constant (Kb) came to 0.051 nM.

As for `COc1cc([C@@H](C)C(=O)N2CC[C@@]3(CCc4cc(-c5ncccn5)c(C)nc4N3)C2)c(F)cn1`, the Kb was found to be 0.72 nM.
